According to ChEMBL document CHEMBL1154105, “Optimization of peptide-based inhibitors of prostate-specific antigen (PSA) as targeted imaging agents for prostate cancer” (Bioorg Med Chem, 2009):

Assays:
[1] = molecular target: T1, Prostate-specific antigen (Homo sapiens, UniProt P07288); experiment: biochemical; assay type: tissue-based, Prostate gland;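 note: Fluorescence-based readout of substrate cleavage by prostate-specific antigen, used to gauge enzyme inhibition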
T1 sequence (P07288 whole entry): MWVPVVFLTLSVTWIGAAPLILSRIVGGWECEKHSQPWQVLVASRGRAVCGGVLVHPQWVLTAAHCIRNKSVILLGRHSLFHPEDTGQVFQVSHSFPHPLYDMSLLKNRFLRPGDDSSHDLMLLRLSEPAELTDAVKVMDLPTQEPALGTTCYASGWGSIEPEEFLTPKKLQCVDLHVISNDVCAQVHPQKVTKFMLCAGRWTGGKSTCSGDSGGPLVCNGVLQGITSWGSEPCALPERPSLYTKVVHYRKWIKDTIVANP

[2] = Selectivity ratio of Ki for chymotrypsin to Ki for prostate-specific antigen; settings: Prostate gland
[3] = Inhibition of chymotrypsin

| Compound | Ki [1] [µM] | Ratio Ki [2] | Ki [3] [µM] |
| --- | --- | --- | --- |
| CC(C)C[C@H](NC(=O)[C@H](CC(C)C)NC(=O)[C@H](CCCCN)NC(=O)[C@H](CO)NC(=O)[C@H](CO)NC(=O)OCc1ccccc1)B(O)O | 65 | – | – |
| CC(C)C[C@H](NC(=O)[C@H](CCC(N)=O)NC(=O)[C@H](CO)NC(=O)[C@H](CO)NC(=O)OCc1ccccc1)B(O)O | – | 8 | 0.211 |
| CC(C)C[C@H](NC(=O)[C@H](CC(C)C)NC(=O)[C@H](CCCCN)NC(=O)[C@H](CO)N(C)C(=O)[C@H](CO)NC(=O)OCc1ccccc1)B(O)O | 19.9 | – | – |
| CC(C)C[C@H](NC(=O)[C@H](CC(C)C)NC(=O)[C@H](CCCCN)N(C)C(=O)[C@H](CO)NC(=O)[C@H](CO)NC(=O)OCc1ccccc1)B(O)O | 2.5 | – | – |
| CC(C)C[C@@H](C=O)NC(=O)[C@H](Cc1ccc(O)cc1)NC(=O)[C@H](CCCCN)NC(=O)[C@H](CO)NC(=O)[C@H](CO)NC(=O)OCc1ccccc1 | 13.1 | – | – |
| CC(C)C[C@H](NC(=O)[C@H](CC(C)C)NC(=O)[C@H](CCCCN)N(C)C(=O)[C@H](CO)NC(=O)[C@H](CO)N(C)C(=O)OCc1ccccc1)B(O)O | 5.6 | – | – |
